In BindingDB's records for doi:10.1021/jm00213a022 (Sichuan University, 2021):
pIC50: −log10 of the molar value.

By UniProt entry, the sequences of proteins in these tests, tags left out. Where a name states a change or a piece, a line headed by the entry shows the natural chain unless it says otherwise.
UniProt P28074: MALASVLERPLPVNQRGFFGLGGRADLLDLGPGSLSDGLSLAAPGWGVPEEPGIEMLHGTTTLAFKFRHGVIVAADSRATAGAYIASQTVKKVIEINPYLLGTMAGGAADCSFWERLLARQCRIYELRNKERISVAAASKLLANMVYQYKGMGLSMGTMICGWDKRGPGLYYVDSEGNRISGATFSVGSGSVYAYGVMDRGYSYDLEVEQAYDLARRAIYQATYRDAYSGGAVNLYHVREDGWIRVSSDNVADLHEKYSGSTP

Molecular target: Proteasome subunit beta type-5 (Homo sapiens, UniProt P28074)
Experiment: Inhibition of beta5 proteasome (unknown origin)

pIC50: 8.47
SMILES: CC(C)C[C@H](NC(=O)CNC(=O)c1cc(Cl)ccc1Cl)B(O)O
